This note sets out measurements from paper PMC6694196, “Intrinsic tryptophan fluorescence spectroscopy reliably determines galectin-ligand interactions” (Scientific Reports, 2019).

Chains of the proteins cited; added tags and fusions are not shown.
UniProt P17931, whole entry: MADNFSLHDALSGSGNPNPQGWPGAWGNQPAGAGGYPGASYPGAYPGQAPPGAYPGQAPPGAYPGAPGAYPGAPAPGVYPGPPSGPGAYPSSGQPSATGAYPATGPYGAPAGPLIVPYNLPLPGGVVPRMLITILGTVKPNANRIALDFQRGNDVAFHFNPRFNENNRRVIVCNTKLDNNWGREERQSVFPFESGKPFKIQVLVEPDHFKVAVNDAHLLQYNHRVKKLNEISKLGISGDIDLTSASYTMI

Several values for one entry are separate records, joined by “and”; a condition that tells them apart may be missing. Identical values can stand only once.

Assay [1] has as its target T1, galectin-3 (Homo sapiens, UniProt P17931).
T1 construct: full-length human galectin-3 (residues 1–250, UniProt code: P17931); His-tag (N, cleaved yes); made in house; host or cells: E. coli BL21(DE3)
The experiment in a line: Tryptophan fluorescence spectroscopy (TFS) of galectin-3-ligand interaction. The conditions noted are these: galectin-3 10 µM, PBS, 25 °C, One site-Specific binding model, mean ± SEM, n=3. As to the method: All tryptophan fluorescence spectroscopy experiments were performed using CARY Eclipse Fluorescence Spectrophotometer (Varian Inc. Santa Clara, California, USA) and a 3 ml quartz cuvette. […] The temperature was maintained constant at 25 °C by an external thermostatic water circulator. […] Control buffer titrations to galectin solutions were performed in parallel for background determination in each experiment. Data from three independent experiments were analysed using nonlinear regression with ‘One Site- Specific Binding’ model (Y = Bmax * X/(KD + X) where X is the ligand concentration, Y is the fluorescence intensity, Bmax is the maximum specific binding and KD is the equilibrium binding constant) in GraphPad Prism 7.04.

Assay [2] concerns the target T1, galectin-3. The experiment in a line: Isothermal titration calorimetry (ITC) of galectin-3-ligand interaction. Particulars: galectin-3 100 µM, PBS, 25 °C, One set of sites model, mean ± SEM, n=3. It counts as binding. As to the method:
ITC experiments were performed at 25 °C using a MicroCal iTC200 microcalorimeter (Malvern Analytical Ltd, Malvern, UK) with 200 µl cell capacity and 40 µl injection syringe volume. […] Ligand-to-buffer and buffer-to-galectin titrations were performed as controls. Ligands were titrated in 19 injections of 2 µl aliquots with 120 s spacing between injections to allow baseline recovery. The ITC titration data were analysed using MicroCal Data Analysis for iTC200 which is an Origin 7.0-based software programme.
(In ITC the heat of successive injections is recorded.)

Assay [3] addresses T2, galectin-2 (Homo sapiens, UniProt P05162).
T2 construct: full length human galectin-2 (residues 1–132, UniProt code: P05162); 6xHis-SUMO (N, cleaved yes); made in house; host or cells: E. coli BL21(DE3)
T2 sequence (P05162 1-132): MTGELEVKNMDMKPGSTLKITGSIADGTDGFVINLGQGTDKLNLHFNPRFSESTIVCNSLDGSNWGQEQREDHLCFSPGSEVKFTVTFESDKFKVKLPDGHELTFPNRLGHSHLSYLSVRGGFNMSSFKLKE
The experiment in a line: TFS of galectin-2-ligand interaction. It counts as binding. Particulars: galectin-2 20 µM, PBS, 25 °C, mean ± SEM, n=3. As to the method: (§1) All tryptophan fluorescence spectroscopy experiments were performed using CARY Eclipse Fluorescence Spectrophotometer (Varian Inc. Santa Clara, California, USA) and a 3 ml quartz cuvette. […] The temperature was maintained constant at 25 °C by an external thermostatic water circulator. To measure galectin-ligand interactions, recombinant galectin-2 at 20 µM, galectin-3 at 10 µM and galectin-4, -4N and -4C at 5 µM were allowed to equilibrate in PBS for 10–30 minutes under constant stirring before being titrated with testing carbohydrate ligand solutions. Galectin-2 was tested with increasing concentrations of LacNAc from 0 to 3.5 mM, lactose from 0 to 4.8 mM and galactose from 0 to 47.0 mM. Galectin-3 was analysed with ligands ranging from 0 to 700 µM for LacNAc, 0 to 1.25 mM for lactose and 0 to 35.5 mM for galactose whereas the inhibitor F3 was tested at concentrations ranging from 0 to 2.64 mM. […] Data from three independent experiments were analysed using nonlinear regression with ‘One Site- Specific Binding’ model (Y = Bmax * X/(KD + X) where X is the ligand concentration, Y is the fluorescence intensity, Bmax is the maximum specific binding and KD is the equilibrium binding constant) in GraphPad Prism 7.04.

In assay [4] the target is T2, galectin-2. The experiment in a line: ITC of galectin-2-ligand interaction. The class given is binding. Particulars: galectin-2 100 µM, PBS, 25 °C, mean ± SEM, n=3. How it is done:
ITC experiments were performed at 25 °C using a MicroCal iTC200 microcalorimeter (Malvern Analytical Ltd, Malvern, UK) with 200 µl cell capacity and 40 µl injection syringe volume. All galectins were used at 100 µM in PBS and the binding ligands were prepared in identical buffers. […] F3 was titrated into galectin-3 at concentration of 20 mM. Ligand-to-buffer and buffer-to-galectin titrations were performed as controls. Ligands were titrated in 19 injections of 2 µl aliquots with 120 s spacing between injections to allow baseline recovery. The ITC titration data were analysed using MicroCal Data Analysis for iTC200 which is an Origin 7.0-based software programme. A curve fit using the ‘One set of sites’ interaction model was used to determine the association constant (KA), stoichiometry of binding (N) and enthalpy change (∆H) for all the interactions of simple sugars with the galectins except F3, where a logistic fit was used due to the nature of F3 as a mixture of heterogeneous polysaccharides.

Assay [5] has as its target T3, galectin-4 (Homo sapiens, UniProt P56470).
T3 construct: full-length human galectin-4 (residues 1–323, UniProt code: P56470); 6xHis-SUMO (N, cleaved yes); made in house; host or cells: E. coli BL21(DE3)
T3 sequence (P56470 1-323): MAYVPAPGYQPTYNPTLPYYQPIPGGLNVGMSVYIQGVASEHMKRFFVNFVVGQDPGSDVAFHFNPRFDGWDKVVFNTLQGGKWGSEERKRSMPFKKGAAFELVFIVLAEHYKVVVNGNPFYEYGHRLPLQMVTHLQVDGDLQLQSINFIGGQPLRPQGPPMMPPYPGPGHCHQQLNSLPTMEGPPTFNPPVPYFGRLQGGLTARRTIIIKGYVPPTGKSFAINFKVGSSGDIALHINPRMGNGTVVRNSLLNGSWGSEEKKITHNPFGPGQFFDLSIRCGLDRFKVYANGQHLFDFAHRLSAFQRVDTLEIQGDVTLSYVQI
The experiment in a line: TFS of galectin-4-ligand interaction. It counts as binding. Particulars: full-length galectin-4 5 µM, PBS, 25 °C. How it is done: as §1

Assay [6] concerns the target T3, galectin-4. The experiment in a line: ITC of galectin-4-ligand interaction. The class given is binding. Particulars: full-length galectin-4 100 µM, PBS, 25 °C. As to the method:
(§2) ITC experiments were performed at 25 °C using a MicroCal iTC200 microcalorimeter (Malvern Analytical Ltd, Malvern, UK) with 200 µl cell capacity and 40 µl injection syringe volume. All galectins were used at 100 µM in PBS and the binding ligands were prepared in identical buffers. LacNAc at 2 mM (for galectin-3), 20 mM (for galectin-2) or 100 mM (for full-length and truncated galectin-4); lactose at 30 mM (for galectin-2, -4 and truncated galectin-4) or 4 mM (for galectin-3); and galactose at 20 mM (for galectin-3) or 200 mM (for galectin-2, -4 and truncated galectin-4) were used in the binding titrations. F3 was titrated into galectin-3 at concentration of 20 mM. Ligand-to-buffer and buffer-to-galectin titrations were performed as controls. Ligands were titrated in 19 injections of 2 µl aliquots with 120 s spacing between injections to allow baseline recovery. The ITC titration data were analysed using MicroCal Data Analysis for iTC200 which is an Origin 7.0-based software programme. A curve fit using the ‘One set of sites’ interaction model was used to determine the association constant (KA), stoichiometry of binding (N) and enthalpy change (∆H) for all the interactions of simple sugars with the galectins except F3, where a logistic fit was used due to the nature of F3 as a mixture of heterogeneous polysaccharides.

Assay [7] concerns the target T4, galectin-4N (residues 1–152) (Homo sapiens, UniProt P56470).
T4 construct: N-terminal galectin-4 (galectin-4N, residues 1–152); His-tag (pET47b, HRV3C-cleavable) (cleaved yes); made in house; host or cells: E. coli BL21(DE3)
T4 sequence (P56470 1-152): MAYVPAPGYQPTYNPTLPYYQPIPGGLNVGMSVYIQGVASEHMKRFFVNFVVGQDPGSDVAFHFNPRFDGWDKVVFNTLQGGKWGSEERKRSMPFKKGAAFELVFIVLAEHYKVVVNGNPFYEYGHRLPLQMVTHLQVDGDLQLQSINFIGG
The experiment in a line: TFS of galectin-4N-ligand interaction. It counts as binding. Particulars: galectin-4N 5 µM, PBS, 25 °C. How it is done:
as §1

Assay [8] deals with T4, galectin-4N (residues 1–152). The experiment in a line: ITC of galectin-4N-ligand interaction. The class given is binding. Particulars: galectin-4N 100 µM, PBS, 25 °C. As to the method:
as §2

The target of assay [9] is T5, galectin-4C (residues 153–323) (Homo sapiens, UniProt P56470).
T5 construct: C-terminal galectin-4 (galectin-4C, residues 153–323); His-tag (pET47b, HRV3C-cleavable) (cleaved yes); made in house; host or cells: E. coli BL21(DE3)
T5 sequence (P56470 153-323): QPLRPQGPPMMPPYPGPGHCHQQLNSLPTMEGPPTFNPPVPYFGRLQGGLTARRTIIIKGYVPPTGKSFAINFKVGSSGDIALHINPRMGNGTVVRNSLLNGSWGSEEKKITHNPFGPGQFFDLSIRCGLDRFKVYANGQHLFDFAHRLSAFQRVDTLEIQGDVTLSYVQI
The experiment in a line: TFS of galectin-4C-ligand interaction. The conditions noted are these: galectin-4C 5 µM, PBS, 25 °C. The class given is binding. As to the method: as §1

For assay [10], the target named is T5, galectin-4C (residues 153–323). The experiment in a line: ITC of galectin-4C-ligand interaction. It counts as binding. The conditions noted are these: galectin-4C 100 µM, PBS, 25 °C. How it is done: as §2

One may read the Kd as the equilibrium constant for the complex coming apart. For α-lactose, the dissociation constant (Kd) at galectin-3 [1] is 89.7 ± 15.8 µM; on galectin-3 [2] it was 93.5 ± 9.1 µM; at galectin-2 [3], 1300 ± 200 µM; on galectin-2 [4] it was 960 ± 180 µM; at galectin-4 [5] it was 589 µM and ~589 µM; at galectin-4 [6], 738 ± 128 µM. For the same substance, the Kd in assay [7] was 451 µM and ~450 µM; in assay [8], 908 ± 52.5 µM; in [9] it was 636 µM and ~635 µM; in assay [10] it was 846 ± 71 µM.
